Tested on: rumen inoculum
Test: Rumen in vitro model
Parameters: species or system steer

With CCCCCCCCCC(=O)N[C@H]1[C@H](Oc2c3cc4cc2Oc2c(Cl)cc(cc2Cl)[C@@H](O)[C@@H]2NC(=O)[C@H](NC(=O)[C@@H]4NC(=O)[C@H]4NC(=O)[C@H](NC(=O)[C@H](NC)c5ccc(O)c(c5)Oc5cc(O)c(Cl)c4c5)[C@H](O)c4ccc(c(Cl)c4)O3)c3ccc(O)c(c3)-c3c(O[C@H]4O[C@H](CO)[C@@H](O)[C@H](O)[C@@H]4O)cc(O)cc3[C@@H](C(=O)O)NC2=O)O[C@H](C(=O)O)[C@@H](O)[C@@H]1O [AAD 216A] the VAL (0.5 ppm) was 92% OF CONTROL, the “Propionate production in the rumen” value (5 and 50 ppm) was “increase propionate production” and the VAL (5 ppm) was 105% OF CONTROL.
